Reference: PubChem BioAssay AID504847 (National Center for Advancing Translational Sciences (NCATS), 2011)
The list shows a part of the results, in another mix than the full data. Results filed as inconclusive are left out. The source made the active and inactive calls. Calls come from the whole dose curve; as a rule, active = well fitted inhibition curve with a large enough effect; inconclusive = small, poorly fitted or top-dose-only effect, or another doubt; inactive = no such curve, though single readings can be large or run the other way.

The chains behind the UniProt entries cited, without tags or fusion partners.
UniProt P11473, whole entry: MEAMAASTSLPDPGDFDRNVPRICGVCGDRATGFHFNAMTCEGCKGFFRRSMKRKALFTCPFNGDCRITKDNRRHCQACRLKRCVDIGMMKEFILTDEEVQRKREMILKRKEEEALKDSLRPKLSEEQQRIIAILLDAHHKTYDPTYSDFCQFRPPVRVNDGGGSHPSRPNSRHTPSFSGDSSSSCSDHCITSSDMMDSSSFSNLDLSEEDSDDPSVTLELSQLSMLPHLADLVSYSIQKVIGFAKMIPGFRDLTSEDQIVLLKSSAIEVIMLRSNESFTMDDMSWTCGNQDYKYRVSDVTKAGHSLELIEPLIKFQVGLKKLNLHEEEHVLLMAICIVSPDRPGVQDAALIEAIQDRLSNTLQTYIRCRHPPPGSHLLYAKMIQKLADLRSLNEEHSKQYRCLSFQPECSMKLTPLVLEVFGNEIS

Biological target: Vitamin D3 receptor (Homo sapiens) (UniProt P11473)
Test: Inhibitors of the vitamin D receptor (VDR): qHTS
Conditions: VDR-SRC2-3 peptide fluorescence polarization, 2 h; stronger effect = lower value
% is set by controls: 0 for no effect and ±100 for the full control effect.

SMILES	max response, negative = inhibition
O=C(NCC1(N2CCOCC2)CCCCC1)c1ccccc1	inactive: 18.1%
c1ccc(CN2CCC(Nc3ccccc3)CC2)cc1	inactive: -1.79%
CN(C)C1(CNC(=O)c2cccc(C#N)c2)CCCCC1	inactive: -7.61%
COc1cc(C(=O)NCC2(N3CCOCC3)CCCCC2)cc(OC)c1C	inactive: 6.41%
O=C(O)c1cccc(Nc2c([N+](=O)[O-])cc([N+](=O)[O-])cc2[N+](=O)[O-])c1	inactive: 4.97%
O=C(OC1CN2CCC1CC2)C1c2ccccc2C=Cc2ccccc21 (configuration not stated)	inactive: 3.21%
CCc1cc(C(=O)NCC2(N3CCCCC3)CCCCC2)sc1C	inactive: 1.57%
N/C(=N\O)c1c(N)no[n+]1[O-]	inactive: -2.62%
CCOC(=O)N1CCC(Nc2ccc(C)cc2)CC1	inactive: -15.4%
O=C(NCC1(N2CCOCC2)CCCCC1)c1cc(F)c(F)cc1Cl	inactive: -1.12%
COc1cc(OC)c(C(=O)NCC2(N(C)C)CCCCC2)cc1OC	inactive: 5.8%
O=[N+]([O-])c1cc([N+](=O)[O-])c(OC2CCCCC2O)c([N+](=O)[O-])c1 (configuration not stated)	inactive: 8.11%
CN(C)c1cccc(C(=O)NCC2(N3CCCCC3)CCCCC2)c1	inactive: 14.9%
COc1ccc(CN(CCCl)CCCl)cc1Cl	inactive: 3.56%
CC(C)c1ccc(NC2CCN(C(=O)OC(C)(C)C)CC2)cc1	inactive: -6.03%
CCCOc1ccc(C(=O)NCC2(N(C)C)CCCCC2)cc1OC	inactive: 8.41%
CCCCOc1ccccc1C(=O)NCC1(N2CCOCC2)CCCCC1	inactive: 12.1%
O=C(NCC1(N2CCCCC2)CCCCC1)c1cncc(Br)c1	inactive: -10.9%
CN1CCC(Nc2cccc(F)c2)CC1	inactive: 0.918%

SMILES	max response, negative = inhibition
O=C(OC1CN2CCC1CC2)c1ccc([N+](=O)[O-])cc1 (configuration not stated)	inactive: -9.14%
CSc1ccc(C(=O)NCC2(N3CCOCC3)CCCCC2)cc1	inactive: -14.1%
O=C(NCC1(N2CCCCC2)CCCCC1)c1cccc([N+](=O)[O-])c1	inactive: -5.74%
CCOc1ccc(C(=O)NCC2(N3CCOCC3)CCCCC2)cc1	inactive: 19.5%
N#CC1(Nc2ccccc2)CCN(CCc2ccccc2)CC1	inactive: 8.17%
CCN1CCC(Nc2ccc(Cl)cc2)CC1	inactive: -6.51%
O=C(NCC1(N2CCCCC2)CCCCC1)c1ccc(OC(F)F)cc1	inactive: 11.2%
CN1CCN(CCOC(=O)C(O)(c2ccccc2)c2ccccc2)CC1	inactive: -3.49%
COc1ccc(NC2CCN(C(=O)OC(C)(C)C)CC2)cc1	inactive: -12.5%
CC(C)c1ccc(C(=O)NCC2(N3CCOCC3)CCCCC2)cc1	inactive: 0.519%
COc1cc(C(=O)NCC2(N3CCCCC3)CCCCC2)ccc1OC(F)F	inactive: 9.94%
O=C(NCC1(N2CCOCC2)CCCCC1)c1cc(=O)[nH]c2ccccc12	inactive: -3.28%
CCCOc1cccc(C(=O)NCC2(N3CCOCC3)CCCCC2)c1	inactive: -1.69%
O=C(NCC1(N2CCCCC2)CCCCC1)c1cccc(C(F)(F)F)c1	inactive: 8.62%
O=[N+]([O-])c1cc([N+](=O)[O-])c(NCC2CCS(=O)(=O)C2)c([N+](=O)[O-])c1 (configuration not stated)	inactive: 0.508%
COc1ccc(NC2CCN(CCc3ccccc3)CC2)c(OC)c1	inactive: -16.5%
CCOC(=O)N1CCC(Nc2ccc(F)cc2)CC1	inactive: 8.6%
O=C(NCC1(N2CCCCC2)CCCCC1)c1ccc(F)cc1	inactive: -6.44%
COc1ccccc1C(=O)NCC1(N2CCOCC2)CCCCC1	inactive: 13.6%

SMILES	max response, negative = inhibition
CCOc1ccc(C)cc1CN(CCCl)CCCl	inactive: -0.513%
O=C(NCC1(N2CCOCC2)CCCCC1)c1ccc(Cl)cc1	inactive: -3.13%
COc1cc(C(=O)NCC2(N(C)C)CCCCC2)ccc1OC(F)F	inactive: -11.8%
CCOC(=O)N1CCC(Nc2cccc(C)c2)CC1	inactive: 3.72%
Cc1cccc(NC2(C#N)CCN(Cc3ccccc3)CC2)c1	inactive: -8.85%
CSc1ccccc1C(=O)NCC1(N2CCCCC2)CCCCC1	inactive: 9.67%
O=C(NCC1(N2CCCCC2)CCCCC1)c1cccs1	inactive: 4.85%
O=C(NCC1(N2CCCCC2)CCCCC1)c1ccc(=O)[nH]c1	inactive: 2.79%
COc1ccc(C(=O)NCC2(N3CCCCC3)CCCCC2)c(OC)c1OC	inactive: 4.05%
CC(C)(C)OC(=O)N1CCC(N(C(=O)c2ccccc2)c2ccc(F)cc2)CC1	inactive: -5.71%
CCOC(=O)N1CCC(Nc2ccc(OC)cc2)CC1	inactive: -9.28%
O=C1C(O)=C([N+](=O)[O-])C(=O)C(O)=C1[N+](=O)[O-]	inactive: -6.76%
COc1ccc(Cl)cc1C(=O)NCC1(N2CCOCC2)CCCCC1	inactive: 5.1%
O=C(OC1CN2CCC1CC2)C1c2ccccc2Oc2ccccc21 (configuration not stated)	inactive: -4.5%
N#CC1(Nc2ccccc2)CCN(Cc2ccccc2)CC1	inactive: -6.68%
O=C(NCC1(N2CCCCC2)CCCCC1)c1ccc(Cl)s1	inactive: 8.84%
O=C(NCC1(N2CCOCC2)CCCCC1)c1cc2ccccc2o1	inactive: 7.85%
Cc1cc(C)cc(N(C(=O)c2ccccc2)C2CCN(C(=O)OC(C)(C)C)CC2)c1	inactive: 0.441%
O=C(NCC1(N2CCCCC2)CCCCC1)c1ccc(Cl)nc1	inactive: -13.8%
